For the assay, the target named is Procathepsin L (Homo sapiens) (UniProt P07711). Nature of the assay: Inhibition of cathepsin L (unknown origin) at 100 uM relative to control.

Amino acid sequences for entries named in this document (tags omitted). A change or cut given only in a name is not applied to a line headed by its entry.
UniProt P07711: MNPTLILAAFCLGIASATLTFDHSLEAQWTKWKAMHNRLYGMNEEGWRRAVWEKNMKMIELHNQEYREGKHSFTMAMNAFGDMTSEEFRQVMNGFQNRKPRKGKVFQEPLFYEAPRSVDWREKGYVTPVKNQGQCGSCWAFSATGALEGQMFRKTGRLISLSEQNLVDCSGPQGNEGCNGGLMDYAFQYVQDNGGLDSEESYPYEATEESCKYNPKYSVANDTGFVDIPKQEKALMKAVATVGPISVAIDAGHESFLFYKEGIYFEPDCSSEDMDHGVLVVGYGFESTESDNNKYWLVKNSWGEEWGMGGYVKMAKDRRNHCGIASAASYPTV

For orientation: inhibition means the relative decrease from the control value, in per cent. Low readings indicate a response near the control, high ones a response far below the control.

Molecule `O=C1/C(=C/c2ccc(N3CCCC3)cc2)Cc2cc3c(cc21)OCO3` yielded an inhibition of 70.4%.
